The entries are a selection whose mix differs from that of the whole data set. The source made the active and inactive calls.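 Rule for the calls: active = mean replicate inhibition at least 60% with every replicate also reaching 60%; inconclusive = only one of the two criteria is met; inactive = mean below 60% and not all replicates reaching 60%.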

The test can be described thus: inhibitors of PAX8-driven TPO luciferase reporter, primary screen, RMG-I cells, single concentration (AID 652154).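 Note: luciferase light reporting Pax8 driven TPO promoter activity; plate controls were median of neutral control wells for no effect and mitoxantrone controls for full effect.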 The note with it: SteadyGlo, 24 h, at 12.6 µM, stronger effect = higher value. For orientation: In a reporter assay the amount or activity of a reporter protein is the signal.
Regarding `Cc1cc(C)cc(OP(C)(=O)Nc2ccc(SC(F)(F)F)cc2)c1` (stereo unspecified), the inhibition (commonly the share of the control response that was lost under treatment) is inactive: 21.1%.

These data come from PubChem BioAssay AID652154 (Broad Institute, 2013).
